# Test results from patent publication US12414974B2, “Materials and methods for treating cancer” (priority 2017, dated 2025).
# B1: IFN-β: recombinant human IFN-β used to pre-treat MV permissive cells (protein, UniProt P01574 22-187, looked up)
# Interferon beta: MSYNLLGFLQRSSNFQCQKLLWQLNGRLEYCLKDRMNFDIPEEIKQLQQFQKEDAALTIYEMLQNIFAIFRQDSSSTGWNETIVENLLANVYHQINHLKTVLEEKLEKEDFTRGKLMSSLHLKRYYGRILHYLKAKEYSHCAWTIVRVEILRNFYFINRLTGYLRN
# Legend:
# GBM64 cells = test: MV anti-tumor effect in vitro (MTT cell viability); assay type: cell-based, human; conditions: GBM64, 50 U/ml for 18-24 hours prior to MV-NIS (MOI 1)
# Protocol: (§1) MV anti-tumor effect in vitro. GBM cells were inoculated at a multiplicity of infection (MOI) of 0.1 and 1.0 with MV strains diluted in Opti-MEM (Life Technologies). MTT proliferation assay (ATCC, Rockville, MD) was used to determine the cell viability at 24 hours to 10 days post MV inoculation. Samples were run 6-8 wells in 96-well plates and cells inoculated with inactivated MV were used as control.
# GBM12 cells = test: MV anti-tumor effect in vitro (MTT cell viability); assay type: cell-based, human; conditions: GBM12, 50 U/ml for 18-24 hours prior to MV-NIS (MOI 1)
# Protocol: as §1
molecule,measurement,setting,value
B1,effect on MV cell killing (MTT),GBM64 cells,decreased the cell killing ability of MV
same,effect on MV cell killing (MTT),GBM12 cells,decreased the cell killing ability of MV
